## Antibody variant affinities, Ab-95 light chain, assay 2

Data: MIT Lincoln Laboratory AlphaSeq set, Engelhart et al. 2022, doi:10.1038/s41597-022-01779-4, as distributed in FLAb.

Target peptide (SARS-CoV-2 spike, HR2 region): PDVDLGDISGINAS

Parent scFv Ab-95: VH joined to VL by three GGGGS repeats. Changes lie in the light chain CDRs alone.
VH: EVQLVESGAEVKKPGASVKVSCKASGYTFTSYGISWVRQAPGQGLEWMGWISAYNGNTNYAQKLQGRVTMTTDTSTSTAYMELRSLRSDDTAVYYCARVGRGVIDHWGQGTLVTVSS
VL: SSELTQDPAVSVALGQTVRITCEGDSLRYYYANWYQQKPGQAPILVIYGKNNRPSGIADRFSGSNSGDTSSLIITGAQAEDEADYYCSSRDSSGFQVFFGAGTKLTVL

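Library AAYL52 holds single substitutions and randomly drawn double and triple substitutions in the CDRs. Affinity was read by AlphaSeq, a pooled yeast mating assay with surface-displayed partners. The frequency of each diploid, read from paired DNA barcodes, reflects how well the two displayed proteins bind. Scores were corrected for input abundance and mapped to Kd with protein pairs of known affinity run in the same pool. Each pool was mated in three replicate cultures.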

Each variant is given by its three light chain CDRs, as the data file delimits them; those of the parent are EGDSLRYYYAN, GKNNRPS, SSRDSSGFQVF.
Values are log10 of the apparent Kd in nM; lower means stronger binding.
"ND" marks a missing value. The strain was present, yet no cells mated with the target were sequenced in that replicate, which points to weak or no binding.
Empty control strains, which show no peptide, gave a signal in 28% of pairings with library AAYL52; the median was 3.91 and 95% of these signals were weaker than 2.90. No background was subtracted. Also given: how often the same scFv was detected with the empty control strains, with their mean in brackets.

{"CDR-L1": "EGDSLIYYYAN", "CDR-L2": "GKNNRPS", "CDR-L3": "SGRDSKGFQVF", "replicates, log10 nM": "3.21 / 3.93 / ND", "control signals": "3 of 9 (3.62)"}
{"CDR-L1": "EDDSLRYYYAN", "CDR-L2": "GKNNRPS", "CDR-L3": "SSRDSSGFQAF", "replicates, log10 nM": "3.83 / 3.61 / ND", "control signals": "4 of 9 (4.19)"}
{"CDR-L1": "DGDSLRYYYAN", "CDR-L2": "GKNNRPN", "CDR-L3": "SSRDSSGFQVF", "replicates, log10 nM": "2.21 / 2.20 / 1.86", "control signals": "1 of 9 (3.04)"}
{"CDR-L1": "EGDSLRYYYAN", "CDR-L2": "MCNNGPS", "CDR-L3": "SSRDSSGFQVF", "replicates, log10 nM": "3.82 / 3.54 / ND", "control signals": "7 of 9 (3.57)"}
{"CDR-L1": "EGDSLRYYYAN", "CDR-L2": "GKNNNPS", "CDR-L3": "SSRDKSGFEVF", "replicates, log10 nM": "3.05 / 2.48 / 3.95", "control signals": "1 of 9 (4.90)"}
{"CDR-L1": "EGDSTAYYYAN", "CDR-L2": "GKNNRPS", "CDR-L3": "SSRDSSGFQVE", "replicates, log10 nM": "ND / 4.97 / 3.92", "control signals": "4 of 9 (3.48)"}
{"CDR-L1": "EGDSLDYYYAN", "CDR-L2": "GKNNRPS", "CDR-L3": "SSRISSGFQVF", "replicates, log10 nM": "2.67 / 2.31 / 2.59", "control signals": "4 of 9 (4.44)"}
{"CDR-L1": "EGDSLRDYYAN", "CDR-L2": "PRNNRPS", "CDR-L3": "SSRDSSGFQVF", "replicates, log10 nM": "5.20 / ND / 3.65", "control signals": "3 of 9 (3.55)"}
{"CDR-L1": "ESDSLRYYYAN", "CDR-L2": "EWNNRPS", "CDR-L3": "SSRDSSGFQVF", "replicates, log10 nM": "ND / ND / 3.35", "control signals": "3 of 9 (3.20)"}
{"CDR-L1": "EGHSLRYYYAQ", "CDR-L2": "GKHNRPS", "CDR-L3": "SSRDSSGFQVF", "replicates, log10 nM": "3.59 / ND / 4.10", "control signals": "4 of 9 (3.85)"}
{"CDR-L1": "CGDSCRYWYAN", "CDR-L2": "GKNNRPS", "CDR-L3": "SSRDSSGFQVF", "replicates, log10 nM": "4.18 / 4.81 / ND", "control signals": "5 of 9 (3.50)"}
{"CDR-L1": "EGLSLRYYDAN", "CDR-L2": "GKNNRPS", "CDR-L3": "SSRDSSGFNVF", "replicates, log10 nM": "1.50 / 1.44 / 1.34", "control signals": "2 of 9 (5.55)"}
{"CDR-L1": "EGDSLRYYYPN", "CDR-L2": "GKNNRPS", "CDR-L3": "SSRFSSGFKVF", "replicates, log10 nM": "1.88 / 1.69 / 0.92", "control signals": "1 of 9 (4.04)"}
{"CDR-L1": "EGDSYRYYYAN", "CDR-L2": "GKNNRPS", "CDR-L3": "SSRDYSGMQVF", "replicates, log10 nM": "ND / ND / ND", "control signals": "6 of 9 (3.85)"}
{"CDR-L1": "EGDSLRYYYAN", "CDR-L2": "GVNNRPS", "CDR-L3": "ISRDSSGFQVF", "replicates, log10 nM": "3.17 / 3.78 / ND", "control signals": "5 of 9 (3.30)"}
{"CDR-L1": "EGDWLRYYYAN", "CDR-L2": "GKNNRPP", "CDR-L3": "QSRDSSGFQVF", "replicates, log10 nM": "4.19 / ND / ND", "control signals": "1 of 9 (3.30)"}
{"CDR-L1": "EGDSLRYYEAN", "CDR-L2": "GKNNRVS", "CDR-L3": "SSRDMSGFQVF", "replicates, log10 nM": "1.70 / 1.49 / 1.27", "control signals": "2 of 9 (3.95)"}
{"CDR-L1": "EGDSLRRYYAN", "CDR-L2": "GKNNRPS", "CDR-L3": "SSRDSSLAQVF", "replicates, log10 nM": "3.54 / ND / 2.77", "control signals": "2 of 9 (3.88)"}
{"CDR-L1": "EGDSLSYYYAN", "CDR-L2": "GKNNRPV", "CDR-L3": "SSLDSSGFQVF", "replicates, log10 nM": "ND / 5.41 / ND", "control signals": "1 of 9 (5.28)"}
{"CDR-L1": "EGDSLSYYYAK", "CDR-L2": "GKNNRKS", "CDR-L3": "SSRDSSGFQVF", "replicates, log10 nM": "ND / ND / ND", "control signals": "0 of 9"}
{"CDR-L1": "EGDSLRYYYAN", "CDR-L2": "GKNNRPS", "CDR-L3": "SMRDSKLFQVF", "replicates, log10 nM": "3.39 / ND / ND", "control signals": "0 of 9"}
{"CDR-L1": "EGRSLRYYYAN", "CDR-L2": "GKNNYPS", "CDR-L3": "SSRDSSGFQVF", "replicates, log10 nM": "ND / 3.32 / 4.11", "control signals": "7 of 9 (4.39)"}
{"CDR-L1": "EGDSLRWYEAN", "CDR-L2": "GKNNRPS", "CDR-L3": "SSRFSSGFQVF", "replicates, log10 nM": "3.09 / ND / ND", "control signals": "2 of 9 (3.38)"}
{"CDR-L1": "EGDSLRDEYAN", "CDR-L2": "GKNNRPS", "CDR-L3": "SSRDSSGFGVF", "replicates, log10 nM": "2.02 / 2.11 / 1.87", "control signals": "1 of 9 (4.57)"}
{"CDR-L1": "EGDSLRYYYAN", "CDR-L2": "GKTNRNS", "CDR-L3": "SSLDSSGFQVF", "replicates, log10 nM": "ND / ND / ND", "control signals": "2 of 9 (3.56)"}
{"CDR-L1": "EGDWLRYYYAN", "CDR-L2": "GENNRPS", "CDR-L3": "SSRDYSGFQVF", "replicates, log10 nM": "3.27 / 3.36 / 4.13", "control signals": "3 of 9 (4.62)"}
{"CDR-L1": "EGDSLRYYYAN", "CDR-L2": "GKNNQPS", "CDR-L3": "SSRDLSGFQVF", "replicates, log10 nM": "4.04 / ND / 3.13", "control signals": "6 of 9 (4.37)"}
{"CDR-L1": "EGDSLRYYYAN", "CDR-L2": "GKNNRTS", "CDR-L3": "SSRDMSGFQVA", "replicates, log10 nM": "3.88 / 4.29 / 2.92", "control signals": "2 of 9 (4.34)"}
{"CDR-L1": "EGSSLRYYYAN", "CDR-L2": "GKNNTPS", "CDR-L3": "SSRDSSYFQVF", "replicates, log10 nM": "3.28 / 2.45 / 2.05", "control signals": "5 of 9 (4.41)"}
{"CDR-L1": "EGDSLPYYYAN", "CDR-L2": "GKNNRPS", "CDR-L3": "SSRDLSGFQYF", "replicates, log10 nM": "ND / ND / ND", "control signals": "0 of 9"}

5 of these entries, quoted again:

{"CDR-L1": "EGDSLRDEYAN", "CDR-L2": "GKNNRPS", "CDR-L3": "SSRDSSGFGVF", "replicates, log10 nM": "2.02 / 2.11 / 1.87", "control signals": "1 of 9 (4.57)"}
{"CDR-L1": "EGDSTAYYYAN", "CDR-L2": "GKNNRPS", "CDR-L3": "SSRDSSGFQVE", "replicates, log10 nM": "ND / 4.97 / 3.92", "control signals": "4 of 9 (3.48)"}
{"CDR-L1": "EGRSLRYYYAN", "CDR-L2": "GKNNYPS", "CDR-L3": "SSRDSSGFQVF", "replicates, log10 nM": "ND / 3.32 / 4.11", "control signals": "7 of 9 (4.39)"}
{"CDR-L1": "EGDSLRWYEAN", "CDR-L2": "GKNNRPS", "CDR-L3": "SSRFSSGFQVF", "replicates, log10 nM": "3.09 / ND / ND", "control signals": "2 of 9 (3.38)"}
{"CDR-L1": "EGDWLRYYYAN", "CDR-L2": "GKNNRPP", "CDR-L3": "QSRDSSGFQVF", "replicates, log10 nM": "4.19 / ND / ND", "control signals": "1 of 9 (3.30)"}